Assay [1] deals with T1, canonical mouse CB1Rs (mouse brain) (Mus musculus, UniProt P47746).
T1 construct: membranes prepared from mouse brain containing a high density of mouse CB1 receptors (mCB1); from tissue; host or cells: mouse brain membrane homogenate
It is filed as binding. Particulars: 1 μM ligand, mouse brain membranes. As for the experimental part:
The assay was conducted as previously detailed. […] All binding reactions were conducted in triplicate, in a final volume of 1 mL, and, following mixing, were incubated for 20 min in a 37 °C water bath to achieve equilibrium. After incubation, reactions were terminated by rapid vacuum filtration through Whatman GF/B glass fiber filters (Brandel; Gaithersburg, MD, USA), followed by three washes of 4 mls of ice-cold filtration buffer (50 mM Tris, pH 7.4, and 0.05% bovine serum albumin). Samples were punched out from filter papers into scintillation vials, to which 4 mls of ScintiverseTM-BDR cocktail scintillation fluid (Fisher Scientific; Hampton, NH, USA) was added. Filters were incubated at room temperature for 24 h in scintillation fluid, vortexed, and radioactivity (measured as DPMs) was quantified via a liquid scintillation spectrophotometer (Tri Carb 2100 TR Liquid Scintillation Analyzer, Packard Instruments, Meriden, CT, USA).

Amino acid sequences for entries named in this document (tags omitted).
UniProt P47746, whole entry: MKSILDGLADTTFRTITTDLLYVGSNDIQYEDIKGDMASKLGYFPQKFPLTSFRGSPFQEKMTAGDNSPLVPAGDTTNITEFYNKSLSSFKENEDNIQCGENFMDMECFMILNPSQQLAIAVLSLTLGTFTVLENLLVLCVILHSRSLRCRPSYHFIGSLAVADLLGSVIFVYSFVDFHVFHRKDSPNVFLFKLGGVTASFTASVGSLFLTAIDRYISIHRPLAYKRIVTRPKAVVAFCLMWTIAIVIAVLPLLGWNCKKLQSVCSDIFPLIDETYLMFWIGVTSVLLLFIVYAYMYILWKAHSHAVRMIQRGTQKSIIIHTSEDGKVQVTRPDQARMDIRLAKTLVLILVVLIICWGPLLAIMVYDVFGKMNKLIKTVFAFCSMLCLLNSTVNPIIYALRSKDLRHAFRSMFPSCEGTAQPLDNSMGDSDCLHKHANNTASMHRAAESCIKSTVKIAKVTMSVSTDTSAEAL
UniProt P34972, whole entry: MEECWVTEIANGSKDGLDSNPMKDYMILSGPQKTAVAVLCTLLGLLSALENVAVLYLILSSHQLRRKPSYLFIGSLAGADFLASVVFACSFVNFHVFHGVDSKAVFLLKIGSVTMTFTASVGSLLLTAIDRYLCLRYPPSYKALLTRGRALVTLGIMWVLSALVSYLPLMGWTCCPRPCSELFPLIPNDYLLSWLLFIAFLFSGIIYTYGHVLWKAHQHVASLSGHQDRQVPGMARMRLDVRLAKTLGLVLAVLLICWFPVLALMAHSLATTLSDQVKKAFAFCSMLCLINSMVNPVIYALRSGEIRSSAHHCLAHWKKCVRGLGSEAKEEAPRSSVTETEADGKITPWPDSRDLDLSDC

Assay [2] has as its target T2, canonical CBRs stably expressed in CHO-hCB2 (Homo sapiens, UniProt P34972).
T2 construct: expressed in transfected cells
The assay is described as follows: Adenylyl cyclase modulation in whole CHO-hCB2 cells. It is filed as cell-based. Particulars: 10 μM.

Regarding `Cc1c(C(=O)c2cccc3ccccc23)c2cccc3c2n1[C@H](CN1CCOCC1)CO3` [WIN-55,212-2], the “displacement of [^3H]CP-55,940” value in assay [1] (0.2 nM radioligand) is “produced near or complete displacement”. For the same compound, the “displacement of [^3H]WIN-55,212-2 (Figure 1B)” value in assay [1] (1 nM radioligand) was “produced near or complete displacement”. Moreover, in assay [2], the “reduction of forskolin-stimulated intracellular cAMP levels” value was found to be 71.3 ± 8.2%.

Values taken from paper PMC8954350, “Non-Canonical Cannabinoid Receptors with Distinct Binding and Signaling Properties in Prostate and Other Cancer Cell Types Mediate Cell Death” (International Journal of Molecular Sciences, 2022).
